Results on 85 compounds are retold here after PubChem BioAssay AID504326 (The Scripps Research Institute Molecular Screening Center, 2011).

The chains behind the UniProt entries cited, without tags or fusion partners.
UniProt P35372, whole entry, looked up: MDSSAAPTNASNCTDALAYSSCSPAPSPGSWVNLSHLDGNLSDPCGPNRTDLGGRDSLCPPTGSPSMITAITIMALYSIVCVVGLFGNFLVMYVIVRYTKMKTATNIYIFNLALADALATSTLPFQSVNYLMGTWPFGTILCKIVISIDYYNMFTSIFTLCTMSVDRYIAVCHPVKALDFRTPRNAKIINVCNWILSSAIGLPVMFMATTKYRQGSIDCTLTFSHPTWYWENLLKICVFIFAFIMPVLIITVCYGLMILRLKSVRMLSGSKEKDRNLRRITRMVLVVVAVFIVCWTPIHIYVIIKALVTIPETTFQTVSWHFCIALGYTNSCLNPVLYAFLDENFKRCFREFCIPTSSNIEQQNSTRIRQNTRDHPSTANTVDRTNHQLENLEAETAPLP
UniProt P41143, whole entry, looked up: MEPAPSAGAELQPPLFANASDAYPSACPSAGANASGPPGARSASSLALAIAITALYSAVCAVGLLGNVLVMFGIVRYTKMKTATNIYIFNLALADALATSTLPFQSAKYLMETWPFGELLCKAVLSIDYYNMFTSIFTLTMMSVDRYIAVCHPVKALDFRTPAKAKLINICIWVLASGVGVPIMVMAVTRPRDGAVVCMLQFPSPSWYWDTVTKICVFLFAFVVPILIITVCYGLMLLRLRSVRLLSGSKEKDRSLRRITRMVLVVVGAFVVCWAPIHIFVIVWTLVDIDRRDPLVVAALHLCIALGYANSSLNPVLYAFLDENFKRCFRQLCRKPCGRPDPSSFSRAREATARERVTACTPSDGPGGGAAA

Only a part is listed here, and it is no random draw. The source made the active and inactive calls. Cut-off read from the data, not from the text of the source: active = activation above about 18%; inactive = the rest.

The target in this test is Mu-type opioid receptor (Homo sapiens) + Delta-type opioid receptor (Homo sapiens) (UniProt P35372+P41143). Kind of test: inducers of mu-delta opioid receptor heterodimers – cell-based, luminescence, primary screen (AID 504326).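 Note: 0% = vehicle-treated cells and 100% = reference agonist.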 Particulars: cells, OPRM1-OPRD1 heterodimerization, at 9.3 µM, stronger effect = higher value.
As for `CCCCOc1ccccc1NC(=O)Cn1c(-c2nonc2N)nc2ccccc21`, the activation was inactive: 4.07%.
Next, `CCc1cccc(C)c1N(C(=O)Cn1c(=O)[nH]c2ccccc21)C(C)COC` (stereo not given): inactive: 0.54%.
Next, `CSc1nc(N)nc2c1ncn2CC(=O)N1CCN(Cc2c(C)cc(C)cc2C)CC1`: inactive: 14.9%; `COc1cccc(CNc2nc3ccccc3n2CCN2CCCCC2)c1OC`: inactive: 2.39%.
Next, `CCN(CC)CCn1c(NC(=O)c2ccc(C(F)(F)F)cc2)nc2ccccc21`: inactive: 0.98%; `Cn1c(=O)c2c(nc(CN3CCOCC3)n2CCN2CCOCC2)n(C)c1=O`: inactive: -0.02%.
`O=S(=O)(Nc1ccc2c(c1)nc1n2CCN(Cc2ccccc2)C1)c1ccc(F)cc1`: the activation is inactive: -2.54%.
Turning to `CC1Cc2ccccc2N1C(=O)Cn1cnc2ccccc21` (stereo not given), the activation was inactive: -0.83%.
Next, `C[C@H](O)[C@@H]1C(=O)N2CCc3ccc(N4CCN(C)CC4)cc3[C@@H]2C[C@@H]1N(C)C(=O)c1ccc(C#N)cc1`: inactive: 0.68%; `CCN(CC)C(=O)Cn1c(=O)n(Cc2ccccc2Cl)c2c1c(=O)n(C)c(=O)n2C`: inactive: -0.28%.
`O=C(Cn1cnc2ccccc21)Nc1ccc(F)c(F)c1`: the activation was inactive: 1.99%.
The value for `COC(=O)c1cccc(NC(=O)Cn2cnc3c2c(=O)n(C)c(=O)n3C)c1` was inactive: -1.37%; that for `O=C(COc1ccccc1)OC1CN2CCC1CC2` (stereo not given) was inactive: -1.59%; that for `Cc1ccc2c(c1)C1CN(C)CCC1N2S(=O)(=O)c1cccc(C(F)(F)F)c1` (stereo not given) was inactive: 1.67%.
As to `O=C(Nc1ccncc1[N+](=O)[O-])c1ccc([N+](=O)[O-])cc1[N+](=O)[O-]`, the activation was inactive: 6.65%.
The value for `Cc1nc2cc(C(F)(F)F)ccc2n1CCNc1nc(-c2ccc(F)cc2)cs1` was inactive: 0.66%; that for `CCOCN(C(=O)Cn1cnc2ccccc21)c1c(C)cccc1CC` was inactive: -2.33%.
The value for `c1ccc(Cn2c(CNc3nc4ccccc4n3CCN3CCOCC3)nc3ccccc32)cc1` was inactive: -2.41%.
The value for `CCC(C(=O)NC1CCCCC1)n1c(SCc2cccc(C)c2)nc2ccncc21` (stereo not given) was inactive: -0.13%; that for `O=C(C1CCCN(S(=O)(=O)c2cccnc2)C1)N1CCn2c1nc1ccccc12` (stereo not given) was inactive: -0.06%.
Turning to `O=C(Cn1cnc2ccccc21)Nc1ccc(SC(F)F)cc1`, the activation was inactive: 2.87%.
Next, `CC(NC(=O)Cn1cnc2c1c(=O)n(C)c(=O)n2C)c1ccccc1` (stereo not given): inactive: 1.05%; `COc1ccc(CNC(=O)Cn2cnc3c(NCc4ccccc4)ncnc32)cc1`: inactive: -4.22%; `O=C(c1ccccc1)N1CCn2c(nc3ccccc32)C1`: inactive: -1.1%.
`CCc1ccc(S(=O)(=O)N2c3ccc(C)cc3C3CN(C)CCC32)cc1` (stereo not given): the activation was inactive: -2.1%.
Next, `CCc1cccc(C)c1N(C(=O)Cn1c(COC)nc2ccccc21)C(C)COC` (stereo not given): inactive: -2.04%.
Take `O=[N+]([O-])c1ccc2c(c1)nc1n2CCN(c2ccccc2)C1`: the activation is inactive: -2.11%.
Next, `O=C(Cn1cnc2c(NC(=O)OCc3ccccc3)ncnc21)NCCN1CCOCC1`: inactive: -1.45%.
Next, `CC(C)NC(=O)Cn1c(SCC(=O)NC2CCCC2)nc2ccccc21`: inactive: -3.19%.
Next, `N=c1n(CCN2CCCC2)c2ccccc2n1CC(O)c1ccc(Cl)c(Cl)c1` (stereo not given): inactive: 1.46%; `COc1ccc2c(c1)C1(Nc3ccccc3-c3nc4ccccc4n31)C(=O)N2C` (stereo not given): inactive: -2.53%.
For `CC(C)[C@H](NC(=O)N1CCn2c1nc1ccccc12)C(=O)NC1CC1`, the activation was inactive: -2.27%.
Next, `COc1cccc(NC(=O)[C@H](CC(C)C)NC(=O)N2CCn3c2nc2ccccc23)c1`: inactive: -0.77%; `C=CCn1c(=O)c2c(nc3n2CCN3c2cccc(Cl)c2C)n(C)c1=O`: inactive: -2.68%; `CN(C)CCn1c(NCc2ccc3c(c2)OCO3)nc2ccccc21`: inactive: -2.02%.
Next, `COC(=O)C[C@H](NC(=O)Cn1cnc2c(NCc3ccccc3)ncnc21)C(=O)OC`: inactive: -2.13%.
Next, `COP1(=S)c2c(C)nn(CCC#N)c2N=C(c2ccc(F)cc2)N1C` (stereo not given): inactive: -1.66%.
As to `Cc1ccc(C)c(S(=O)(=O)N2CCN(C(=O)Cn3cnc4c3c(=O)n(C)c(=O)n4C)CC2)c1`, the activation is inactive: -0.23%.
The value for `O=C(C1CCN(S(=O)(=O)c2cccc3nsnc23)CC1)N1CCn2c1nc1ccccc12` was inactive: -14.3%; that for `CSc1nc(N)nc2c1ncn2CC(=O)Nc1ccc(C)c(C)c1` was inactive: -1.86%.
As for `N=c1n(CCN2CCCCC2)c2ccccc2n1CC(=O)c1cccs1`, the activation is inactive: -0.73%.
The value for `O=C(Cn1cnc2c(OCc3ccccc3)ncnc21)N1CCN(c2ccccn2)CC1` was inactive: -0.47%; that for `O=C(Nc1ccccc1C(F)(F)F)N1CCC(n2c(=O)[nH]c3ccccc32)CC1` was inactive: -1.25%.
As for `N#CCC(=O)N/N=C\c1cccc(OC/C=C/c2ccccc2)c1`, the activation was inactive: 3.46%.
Next, `CC(C)[C@H](NC(=O)N1CCn2c1nc1ccccc12)C(=O)N[C@H](Cc1ccccc1)C(=O)O`: inactive: -1.25%.
Next, `COC(=O)[C@H](Cc1ccc(O)cc1)NC(=O)Cn1cnc2c(SC)nc(N)nc21`: inactive: 0.17%; `CC(C)[Si]1(C(C)C)OCC2OC(n3cnc4c(N)ncnc43)C(N)C2O[Si](C(C)C)(C(C)C)O1` (stereo not given): inactive: 0.31%; `NC(=O)CC(NC(=O)c1cccc(Br)c1)c1ccc(NC2CCN(Cc3ccccc3)CC2)c([N+](=O)[O-])c1` (stereo not given): inactive: -1.51%.
Regarding `N=c1n(CCN2CCCCC2)c2ccccc2n1CC(O)c1ccc(Cl)c(Cl)c1` (stereo not given), the activation is inactive: 5.23%.
The value for `Cc1ccc(S(=O)(=O)Nc2ccc(Cl)cc2)cc1NC(=O)Cn1cnc2c1c(=O)n(C)c(=O)n2C` was inactive: -0.17%; that for `CC(C)NC(=O)CSc1nc2ccccc2n1CC(=O)N(C(C)C)C(C)C` was inactive: 0.06%.
Next, `Cc1ccc2c(c1)C1CN(C)CCC1N2C(=O)c1ccco1` (stereo not given): inactive: -2.2%.
Next, `O=C(Cn1c(NCCO)nc2ccccc21)Nc1cccc(S(=O)(=O)N2CCCC2)c1`: inactive: -2.24%; `CCN(CC)c1ccc(CNc2nc3ccccc3n2CCN2CCOCC2)cc1`: inactive: -2.89%; `O=C(O)CCc1nn2c3ccccc3n(CCN3CCCCC3)c2nc1=O`: inactive: 1.17%.
Take `Cc1cnc(NC(=O)Cn2cnc3c2c(=O)n(C)c(=O)n3C)s1`: the activation was inactive: -2.81%.
The value for `Cc1ccc(Cn2nnnc2CN2CCC(n3nnc4cc(C(F)(F)F)ccc43)CC2)cc1` was inactive: 8.2%; that for `Cc1ccc(-c2csc(NCCn3c(-c4ccncc4)nc4cc(C(F)(F)F)ccc43)n2)cc1` was inactive: -2.15%.
Next, `Nc1nonc1-c1nc2ccccc2n1CC(=O)NC1CCCC1`: inactive: -1.96%; `CC(C)(C)NC(=O)Cn1c(SCC(=O)NC2CC2)nc2ccccc21`: inactive: -2.88%; `CSc1nc(N)nc2c1ncn2CC(=O)NCc1ccc2c(c1)OCO2`: inactive: -3.62%.
With `COc1ccc(N/C(=N/P(=O)(N2CCOCC2)N2CCOCC2)N2CCOCC2)cc1`, the activation was inactive: -3.2%.
Turning to `CN(C)C(=O)Cn1c(SCC(=O)NCc2ccc3c(c2)OCO3)nc2ccccc21`, the activation was inactive: -1.12%.
Next, `CCN(CC)S(=O)(=O)c1ccc(OC)c(NC(=O)Cn2cnc3c2c(=O)n(C)c(=O)n3C)c1`: inactive: -2.92%; `O=C(Cn1cnc2c(OCc3ccccc3)ncnc21)NCc1ccccn1`: inactive: -0.85%.
As to `Cn1c(=O)c2ncn(CC(=O)Nc3cccc(-c4nc5ccccc5s4)c3)c2n(C)c1=O`, the activation was inactive: -0.96%.
Consider `c1ccc2c(c1)nc1n2CCN1CCNC1CCCCC1`, for which the activation is inactive: -3.99%.
Next, `COc1cc(NC(=O)Cn2cnc3c(NCc4ccccc4)ncnc32)cc(OC)c1OC`: inactive: -2.25%; `Cc1cc2ncn(C3CC(=O)N(Cc4ccccc4)C3=O)c2cc1C` (stereo not given): inactive: 1.61%.
The value for `O=[N+]([O-])c1cc(Oc2ccc([N+](=O)[O-])cc2C(F)(F)F)cc([N+](=O)[O-])c1` was active: 18.9%.
On to `CN(c1ccccc1)S(=O)(=O)c1cccc(NC(=O)Cn2cnc3c2c(=O)n(C)c(=O)n3C)c1`, for which the activation was inactive: 0.01%.
Next, `CN(C)CCn1c(=N)n(CC(O)c2ccc(Cl)c(Cl)c2)c2ccccc21` (stereo not given): inactive: 6.41%.
`Cc1ccc(CNC(=O)Cn2cnc3c(OCc4ccccc4)ncnc32)o1`: the activation was inactive: -2.99%.
The value for `COc1cc(NC(=O)[C@@H](NC(=O)N2CCn3c2nc2ccccc23)C(C)C)cc(OC)c1` was inactive: -2.83%.
The value for `Nc1nonc1-c1nc2ccccc2n1CC(=O)N1CCN(c2ccc(F)cc2)CC1` was inactive: 4.56%; that for `Cn1c(=O)[nH]c(=O)c2c1nc(CN1CCN(c3ccc(F)cc3)CC1)n2CCN1CCOCC1` was inactive: -2.57%; that for `COc1ccc2nc(NP(=O)(c3ccccc3)c3ccccc3)sc2c1` was inactive: -2.82%.
Next, `CCCn1c(=O)[nH]c(=O)c2c1nc(-c1ccc3c(c1)OCCO3)n2CCN1CCOCC1`: inactive: -0.27%.
Take `Cc1ccc(/C=N/NC(=O)Cn2cnc3ccccc32)o1`: the activation is inactive: -1.37%.
Next, `CC(C)N(C(=O)Cn1c(-c2ccccc2Cl)nc2ccccc21)c1ccccc1`: inactive: -1.62%; `Cn1c(=O)[nH]c(=O)c2c1nc(N1CCCCCC1)n2CCN1CCCCCC1`: inactive: 1.91%.
Take `CCOC(=O)c1cccc(NC(=O)Cn2c(CC(=O)NC)nc3ccccc32)c1`: the activation is inactive: 0.65%.
As for `Cc1ccc(NC(=O)Cn2cnc3c(OCc4ccccc4)ncnc32)cc1C`, the activation is inactive: 1.26%.
The value for `CSCC[C@H](NC(=O)N1CCn2c1nc1ccccc12)C(=O)NCc1ccccc1` was inactive: -3.17%; that for `C(=N\c1nc2ccccc2n1CCN1CCCCC1)/c1cccs1` was inactive: -1.08%.
